The subject of data set [1] is Srxn1-GFP (oxidative stress). Description: HepG2 Srxn1-GFP BAC reporter, live cell confocal imaging (oxidative stress). It counts as cell-based, Human. The following applies: order of responses in 24 h; 100× C-max printed for nimesulide, rifampicin, oxytetracycline.
Data set [2] relates to CHOP-GFP (ER stress/UPR response). Description: HepG2 CHOP-GFP BAC reporter, live cell confocal imaging (ER stress/UPR). The following applies: order of responses in 24 h; 100× C-max printed for nimesulide, rifampicin, oxytetracycline. It counts as cell-based, Human.
The conditions of data set [3]: two classes made from the FDA DILI-concern labeling.
For data set [4] the following is noted: ref livertox.nih.gov database; cited from earlier work.

For `CS(=O)(=O)Nc1ccc([N+](=O)[O-])cc1Oc1ccccc1` [Nimesulide], the “Srxn1-GFP response, time dynamics relative to CHOP-GFP” value in data set [1] was “delayed Srxn1-GFP response”. Further, the “CHOP-GFP response, time dynamics relative to Srxn1-GFP” value in data set [2] was “initial CHOP-GFP response”. The Severity class result in data set [3] was “Sev”.

For `Nc1nc(O)c2ncn(COC(CO)CO)c2n1` [Ganciclovir], in data set [4], the “Metab (metabolic potential)” value is “YES”.

Consider `CCCc1cc(=O)[nH]c(=S)[nH]1` [Propylthiouracil], for which, in data set [4], the “Metab (metabolic potential)” value is recorded as “YES”.

For `O=C(O)Cc1ccccc1Nc1c(Cl)cccc1Cl` [Diclofenac], in data set [4], the “Metab (metabolic potential)” value is “YES”.
